Measured values as given in patent US12622913B2, “Folate salts for medical use” (APROFOL AG, priority 2018, dated 2026).

Assay: Solubility determination of selected folate salts in solvents
Assay type: physicochemical
Conditions: mass-% (m/m), 20° C.; for Solubility in DMSO: solvent DMSO; for Solubility in EtOH: solvent EtOH; for Solubility in MeOH: solvent MeOH; for Solubility in Glycerine: solvent glycerine; for Solubility in i-PrOH: solvent i-PrOH; for Solubility in n-PrOH: solvent n-PrOH
Experimental: Solubility determination of selected folate salts was in general performed as follows:
A quantity of the salt corresponding to the expected solubility (between 1-100 mg) was provided and mixed with increments of the respective solvent until a solution was formed.

5-formyl-(6S)-tetrahydrofolic acid di metformin salt [FTHF di metformin]
Solubility in DMSO: 0.25%
Solubility in EtOH: 0.63%
Solubility in MeOH: 55.80%
Solubility in Glycerine: 7.35%
Solubility in i-PrOH: 0.63%
Solubility in n-PrOH: 0.62%

5-Formyl-(6S)-tetrahydrofolic acid di-choline salt [FTHF di choline]
Solubility in DMSO: 0.25%
Solubility in EtOH: >50%
Solubility in MeOH: >>50%
Solubility in Glycerine: 28.41%
Solubility in i-PrOH: 0.32%
Solubility in n-PrOH: 0.31%

5-methyl-(6S)-tetrahydrofolic acid di-metformin salt [MTHF di metformin]
Solubility in DMSO: 31.25%
Solubility in EtOH: 0.63%
Solubility in MeOH: 55.80%
Solubility in Glycerine: 7.35%
Solubility in i-PrOH: 0.63%
Solubility in n-PrOH: 0.62%
